The target in test [1] is Alpha-2B adrenergic receptor (Homo sapiens, UniProt P18089).
The target in test [2] is Alpha-2C adrenergic receptor.

Chains of the proteins cited; added tags and fusions are not shown.
UniProt P18089, whole entry: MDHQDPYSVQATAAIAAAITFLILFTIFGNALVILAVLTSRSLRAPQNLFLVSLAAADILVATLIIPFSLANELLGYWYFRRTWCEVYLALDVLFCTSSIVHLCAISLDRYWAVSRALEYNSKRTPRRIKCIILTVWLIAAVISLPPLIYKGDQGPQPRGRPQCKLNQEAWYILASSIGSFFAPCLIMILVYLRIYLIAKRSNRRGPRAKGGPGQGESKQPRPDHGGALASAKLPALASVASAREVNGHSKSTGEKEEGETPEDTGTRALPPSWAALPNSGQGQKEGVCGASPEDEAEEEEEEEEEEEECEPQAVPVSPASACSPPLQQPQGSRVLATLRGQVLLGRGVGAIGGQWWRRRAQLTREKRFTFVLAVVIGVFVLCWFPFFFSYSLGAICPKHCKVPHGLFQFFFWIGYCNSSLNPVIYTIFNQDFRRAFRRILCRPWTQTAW

A word on the Ki: it is a measure of affinity in units of concentration, obtained from inhibition or displacement. Low values mean higher affinity, high ones lower affinity. Take `O=C1NCN(c2ccccc2)C12CCN(CC1COc3ccccc3O1)CC2` (stereo not drawn) [8-(2,3-Dihydro-benzo[1,4]dioxin-2-ylmethyl)-1-phenyl-1,3,8-triaza-spiro[4.5]decan-4-one]: the affinity in test [1], expressed as Ki, was 0.19 nM.

`Cc1ccc(N(CC2=NCCN2)c2cccc(O)c2)cc1` [SMR000059054]: the inhibitory constant (Ki) in test [2] was 29 nM.

As to `CN(C)CCCN1c2ccccc2Sc2ccc(Cl)cc21` [[3-(2-Chloro-phenothiazin-10-yl)-propyl]-dimethyl-amine(Chlorpromazine)], in test [2], the affinity, expressed as Ki, was 238 nM.
